Values of other authors as cited in US5688485A, “Radiolabelled complexes of ester-substituted diaminethiols” (The DuPont Merck Pharmaceutical Company, priority 1992, dated 1997).

Settings: in vivo; cited from earlier work

For “Tc-99m-N,N'-bis(mercaptoacetyl)ethylenediamine [Tc-99m-DADS]”, the “Route / rate of renal elimination” value is listed as “excreted by active tubular secretion” and the renal extraction efficiency is listed as “about 53%”.
